The results in this text go back to US8822519B2, “Compound with agitation effect on peroxisome proliferator-activated receptor process for its preparation and use thereof” (Zhejiang Hisun Pharmaceutical Co., Ltd., priority 2008, dated 2014).

One series has as its target T1, PPARδ (Homo sapiens, UniProt Q03181).
T1 construct: expressed in transfected cells; host or cells: HepG2 (human hepatocarcinoma, ATCC)
T1 sequence (Q03181 1-441): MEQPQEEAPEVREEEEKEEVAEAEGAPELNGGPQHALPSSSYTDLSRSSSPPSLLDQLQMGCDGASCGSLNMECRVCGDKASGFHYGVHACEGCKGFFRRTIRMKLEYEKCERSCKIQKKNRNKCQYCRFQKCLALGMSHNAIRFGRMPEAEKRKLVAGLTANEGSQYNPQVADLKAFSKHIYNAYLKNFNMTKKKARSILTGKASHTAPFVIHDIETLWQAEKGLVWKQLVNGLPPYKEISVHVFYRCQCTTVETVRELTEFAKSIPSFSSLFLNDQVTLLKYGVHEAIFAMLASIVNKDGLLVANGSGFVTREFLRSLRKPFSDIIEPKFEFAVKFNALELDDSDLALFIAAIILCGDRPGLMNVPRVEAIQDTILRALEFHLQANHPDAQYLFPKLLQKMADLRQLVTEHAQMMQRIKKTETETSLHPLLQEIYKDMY
T1 sequence (P19793 1-462 partner): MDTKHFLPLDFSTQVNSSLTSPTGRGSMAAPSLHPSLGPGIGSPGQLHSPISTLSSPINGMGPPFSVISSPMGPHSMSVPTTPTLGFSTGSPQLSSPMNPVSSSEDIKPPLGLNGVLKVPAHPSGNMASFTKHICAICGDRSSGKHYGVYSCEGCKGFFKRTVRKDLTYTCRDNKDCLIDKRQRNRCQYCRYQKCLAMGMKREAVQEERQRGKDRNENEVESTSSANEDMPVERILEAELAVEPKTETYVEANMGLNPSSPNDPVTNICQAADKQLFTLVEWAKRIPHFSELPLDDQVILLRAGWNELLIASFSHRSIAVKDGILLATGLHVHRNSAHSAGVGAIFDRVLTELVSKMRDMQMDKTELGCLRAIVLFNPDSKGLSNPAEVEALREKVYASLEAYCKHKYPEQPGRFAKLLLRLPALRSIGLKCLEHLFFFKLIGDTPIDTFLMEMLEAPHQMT
In words: In vitro screening of nuclear receptor agonist: luciferase reporter gene assay in HepG2 cells. The note with it: RXR/PPARδ luciferase reporter gene, 24 h treatment. It is filed as cell-based. The source says: Using a reporter gene protocol, the screening model for screening a nuclear receptor agonist in a living cell is designed on a basis of the principal that an activated nuclear receptor can activate transcription of its downstream gene. A reporter gene plasmid is constructed, in which the DNA binding sequence for the nuclear receptor (NRE) is inserted upstream of the luciferase gene, so that the expression of the luciferase gene is placed under the control of the nuclear receptor. Then, the reporter gene plasmid and the nuclear receptor are simultaneously transferred into a cell, and the nuclear receptor is activated when the nuclear receptor agonist is present in the cell culture medium. Then the activated receptor is able to induce the expression of the luciferase gene, while the amount of the luciferase can be determined through its luminous substrate. In this way, the intensity of activation by the compound on the nuclear receptor could be known by observing the luminescence intensity. […] The experimental results are expressed as relative fold activation, with a value of 1 for the solvent control, and the greater the fold is, the higher the activation capacity represents. […]

Series [1] relates to Macaca rhesus model of hyperlipidemia. In words: Macaca rhesus model of hyperlipidemia, hematological indicators and ELISA. It is filed as in vivo. Conditions: ELISA, three months of administration, in words. The source says:
Afterwards, efficacy of the medicament of the A-3 was confirmed in the Macaca rhesus model of hyperlipidemia. After three months of administration, blood samples were taken from the femoral vein for the determination of hematological indicators, and the determination of the insulin, apolipoprotein A-1 (apoA-1) and apolipoprotein B-100 (apoB-100) by ELISA.
(In general: In an ELISA, binding on a coated surface is turned into a signal by an enzyme label.)

A short description of series [2]: Pharmacokinetics: plasma concentration-time curve. Format: in vivo. The note with it: SD rats, gastric lavage, 50, 10 and 2 mg/kg. As for the experimental part:
36 of SD rats were selected with a female-to-male ratio of 1:1 and a body weight in the range of 150-170 g, assigned them into two dosage groups, and they were administrated with A-1 and A-3, respectively; while 3 dosage subgroups were designed in each dosage group with the dose concentrations being 50, 10, and 2 mg/kg, six animals each subgroup with the female-to-male ratio of 1:1. All of the rats were fasting over 12 h and given ad libitum access to water. The dosing volume was 10 ml/kg, and blood samples of 0.4-0.5 ml were taken from the vena orbitalis posterior of the waken animals at different time points post-gastric lavage and centrifuged at 5000 rpm for 10 min. 200 μL of plasma sample was precisely measured, then supplemented with 200 μL acetonitrile, vortexed to evenness, left stand for 5 min, and centrifuged (14000 rpm, 5 min). The supernatant was collected and then centrifuged again (14000 rpm, 5 min). The resulting supernatant was gathered and subjected to HPLC injection. Time points for blood sampling were respectively: 0, 0.5, 1, 2, 4, 6, 8, 10, 12, 24, 36, 48 and 72 h, and the peak area for each time point was the average of those obtained from 6 rats at the same time point. Plasma concentrations were calculated and the medicament concentration-time curve was plotted.

Consider “2-(3-methyl-4-(1-(3-(4-methyl-5-oxo-1-(4-trifluoromethyl-phenyl)-4,5-dihydrogen-1H-1,2,4-triazolyl))-benzyloxy)-phenylthio)-acetic acid [Compound A-3]”, for which the EC50 (commonly the concentration that produces a half-maximal response) at PPARδ was found to be 10 nM. For the same substance, the “ratio of apoA-1 to apoB-100” value in series [1] is “approached to that in normal animals”. The t1/2 in series [2] fell in the range of 10 to 12 h.
